Results as given in ChEMBL document CHEMBL1124697, “A new family of water-soluble, third generation antitumor platinum complexes” (J Med Chem, 1989).

Experiment: Water solubility was determined
Assay type: ADME
Conditions: buffer

Row | Water solubility [µg/mL] | Substance
1 | 100 | Platinum:9,9-Dichloro-3-methyl-2,4-dioxa-8,10-diaza-spiro[5.5]undecane
2 | 500 | Platinum:9,9-Dichloro-2,4-dioxa-8,10-diaza-spiro[5.5]undecane
